# Results from PMC9071858, “Comparative Pharmacokinetics of Seven Major Compounds in Normal and Atherosclerosis Mice after Oral Administration of Simiao Yong'an Decoction” (Evidence-based Complementary and Alternative Medicine : eCAM, 2022).
# Assays:
# [1] = Pharmacokinetic study in atherosclerosis (AS) model ApoE−/− mice after oral administration of SMYAD; type: in vivo, mouse; details: plasma, SMYAD intragastric 35 g/kg/d for seven days, mean ± SD, n = 5
# Experimental: (§1) Male C57BL/6J mice and ApoE^−/− mice on a C57BL/6 background (7 weeks old, 18–22 g) were purchased from Beijing Vital River Laboratory Animal Technology Co., Ltd. (Beijing, China, Certificate No.: SCXK (Jing) 2016-0006). All the mice were kept in an SPF animal house (Dongzhimen Hospital Affiliated to Beijing University of Chinese Medicine, Certificate No.: SYXK (Jing) 2015-0001) with food and water freely available, 12 h light/dark, and environmental conditions of 22°C–24°C, 50% relative humidity. All protocols of animal experiments were performed in accordance with the National Guidelines for Laboratory Animal Welfare and were approved by the Animal Ethics Committee of Beijing University of Chinese Medicine (NO. BUCM-4-2015071701-3001). High-fat feeding (containing 15% fat and 0.25% cholesterol) was provided by Beijing HFK bioscience CO., LTD. (Beijing, China, Certificate No.: SCXK (Jing) 2014-0018).
# The AS model was established by a high-fat diet and perivascular carotid collar placement (PCCP) surgery in the ApoE^−/− mice. After a 7-day adaptive feeding, the mice were given a high-fat diet for 2 weeks; before anesthesia, all ApoE^−/− mice were fasted for 12 hours. During the surgery, the right common carotid artery was exposed, and a silicone cannula (length: 2.5 mm, inner diameter: 0.3 mm) was fixed around the carotid artery (external diameter: about 0.5 mm). Penicillin was injected intraperitoneally for 3 days after surgery to prevent infection. High-fat diet continued for 8 weeks after surgery to establish AS model. Biochemical assays and hematoxylin and eosin (HE) staining were used to evaluate whether AS model was successfully established.
# (§2) Normal control (NC) and AS mice (30 per group) were employed to investigate the pharmacokinetic properties of harpagide, chlorogenic acid, swertiamarin, sweroside, angoroside C, liquiritin, and isoliquiritigenin after the oral administration of SMYAD. After successful induction of AS model, SMYAD was administered to NC and AS mice by intragastric gavage at the crude drug dose of 35 g/kg/d for seven days. Blood samples were collected from each mouse in heparinized tubes via the postorbital venous plexus veins at 0, 0.25, 0.5, 1, 2, 4, 6, 8, 10, 12, 18, and 24 h after seven days of drug administration. Then blood samples were immediately centrifuged at 3500 rpm at 4°C for 10 min and the plasma was stored at −80°C until use.
# (§3) Each plasma sample (100 μL) was mixed with a threefold volume of methanol and 25 μL IS in a 1.5 mL EP tube. Then the mixture was vortexed for 100 seconds and centrifuged at 12,000 rpm for 10 min at 4°C. The supernatant was transferred to another EP tube and evaporated to dryness under a nitrogen vacuum. The residue was reconstituted with 100 μL of 50% methanol and centrifuged at 15,000 rpm for 15 min. Then the supernatant was transferred to sample vials for the LC-MS analysis.
# (§4) A Vanquish UHPLC™ system (Thermo Fisher Scientific Inc., USA) was used for the analysis. Samples were separated on an Atlantis T3 column (4.6 mm × 150 mm, 3 μm; Waters, USA). The column temperature was 40°C. The mobile phase, at 0.4 mL/min, consisted of water containing 0.1% formic acid (v/v, A) and methanol (B). The quantitative analysis gradient program was as follows: 0-1 min, 0 B; 1–6 min, 0–100% B; 6–12 min, 100% B; 12–12.1 min, 100%-0 B; 12.1–15 min, 0 B. The injection volume was 5 μL.
# The mass spectrometer Q Exactive HF-X (Thermo Fisher Scientific Inc., USA) system was connected to the UHPLC system via heated electrospray ionization (HESI) and controlled by Xcalibur 4.2 software (Thermo Fisher) that was used for data collection and analysis. The mass spectrometer was operated in a negative ionization mode. […]
# [2] = Pharmacokinetic study in normal control (NC) mice after oral administration of SMYAD; type: in vivo, mouse; details: plasma, SMYAD intragastric 35 g/kg/d for seven days, mean ± SD, n = 5
# Experimental: as §1, §2, §3, §4
# The mass spectrometer Q Exactive HF-X (Thermo Fisher Scientific Inc., USA) system was connected to the UHPLC system via heated electrospray ionization (HESI) and controlled by Xcalibur 4.2 software (Thermo Fisher) that was used for data collection and analysis. The mass spectrometer was operated in a negative ionization mode. The MS parameters were set as follows: probe heater temperature, 350°C; capillary temperature: 320°C; sheath gas (N2) flow rate: 30 arbs; auxiliary gas (N2) flow rate: 10 arbs; spray voltage: 3.2 kV (negative); S-Lens RF level: 55 V; scan mode: full MS (resolution 12000); scan range: m/z 150–1500. The most abundant ions in the spectra were selected for sensitive quantitation ([M-H]^−of chlorogenic acid, angoroside C, liquiritin, isoliquiritigenin, and IS, [M + COOH]^− of harpagide, swertiamarin, and sweroside). The m/z of harpagide was 409.13405, chlorogenic acid was 353.08671, swertiamarin was 419.11840, sweroside was 403.12349, angoroside C was 783.27061, liquiritin was 417.11801, isoliquiritigenin was 255.06519, and IS was 591.17083. […]
# [3] = Stability of analytes in QC plasma samples; type: in vitro ADME, mouse; details: n = 5
# Experimental: Standard calibration curves were constructed by spiking 100 μL of blank mouse plasma with 25 μL of the standard working solutions and 25 μL of the IS working solution, yielding final plasma concentrations in the range of 2–1500 ng/mL for harpagide, 1–2000 ng/mL for chlorogenic acid, 5–12000 ng/mL for swertiamarin, 5–2500 ng/mL for sweroside, 5–500 ng/mL for angoroside C and liquiritin, and 2–500 ng/mL for isoliquiritigenin.
# Quality control (QC) samples at three concentration levels (38.4, 240, and 600 ng/mL for harpagide; 51.2, 320, and 800 ng/mL for chlorogenic acid; 307.2, 1920, and 4800 ng/mL for swertiamarin; 64, 400, and 1000 ng/mL for sweroside; 12.8, 80, and 200 ng/mL for angoroside C, liquiritin, and isoliquiritigenin) were prepared by the same operation described above. All solutions were stored at 4°C.
# Stability was evaluated as five replicate QC samples at two concentration levels (see Table 5).
# [4] = high QC level (600 harpagide, 800 chlorogenic acid, 4800 swertiamarin, 1000 sweroside, 200 others ng/ml)
# [5] = low QC level ([…] harpagide, 51.2 chlorogenic acid, 307.2 swertiamarin, 64 sweroside, 12.8 others ng/ml)
substance,measurement,setting,value
harpagide,AUC0–t,[1],11075.09 ± 2132.38^∗∗ ng·mL^−1·h
same,AUC0–∞,[1],16221.95 ± 5622.42^∗ ng·mL^−1·h
same,C max,[1],939.74 ± 180.83 ng/mL
same,CLz/F,[1],2.45 ± 0.87^∗∗ L/h/mg
same,Vz/F,[1],24.34 ± 16.57 L/mg
same,t 1/2,[1],8.55 ± 3.97 h
same,t max,[1],4.00 ± 0.00 h
same,AUC0–t,[2],6936.17 ± 533.23 ng·h/mL
same,AUC0–∞,[2],7194.33 ± 588.34 ng·h/mL
same,C max,[2],838.40 ± 126.54 ng/mL
same,CLz/F,[2],81700 ± 6670 µL/min/mg
same,Vz/F,[2],32.74 ± 7.64 L/mg
same,t 1/2,[2],8.40 ± 1.80 h
same,t max,[2],6.00 ± 2.19 h
same,Freeze-thaw stability 3 freeze-thaw cycles Accuracy RE,[3]; [4],−2.09%
same,Freeze-thaw stability 3 freeze-thaw cycles Calc. conc.,[3]; [4],587.47 ± 36.62 ng/mL
same,Long-term stability −20°C for 30 d Accuracy RE,[3]; [4],2.15%
same,Long-term stability −20°C for 30 d Calc. conc.,[3]; [4],612.90 ± 22.28 ng/mL
same,Postpreparative stability 24 h in the autosampler (4°C) Accuracy RE,[3]; [4],−4.08%
same,Postpreparative stability 24 h in the autosampler (4°C) Calc. conc.,[3]; [4],575.51 ± 22.16 ng/mL
same,Short-term stability 24 h in room temperature (20°C) Accuracy RE,[3]; [4],9.08%
same,Short-term stability 24 h in room temperature (20°C) Calc. conc.,[3]; [4],654.47 ± 22.87 ng/mL
same,Freeze-thaw stability 3 freeze-thaw cycles Accuracy RE,[3]; [5],−0.92%
same,Freeze-thaw stability 3 freeze-thaw cycles Calc. conc.,[3]; [5],38.05 ± 4.19 ng/mL
same,Long-term stability −20°C for 30 d Accuracy RE,[3]; [5],5.94%
same,Long-term stability −20°C for 30 d Calc. conc.,[3]; [5],40.68 ± 3.21 ng/mL
same,Postpreparative stability 24 h in the autosampler (4°C) Accuracy RE,[3]; [5],−0.13%
same,Postpreparative stability 24 h in the autosampler (4°C) Calc. conc.,[3]; [5],38.35 ± 3.75 ng/mL
same,Short-term stability 24 h in room temperature (20°C) Accuracy RE,[3]; [5],2.45%
same,Short-term stability 24 h in room temperature (20°C) Calc. conc.,[3]; [5],39.34 ± 1.92 ng/mL
